Measured values published in PubChem BioAssay AID903 (National Center for Advancing Translational Sciences (NCATS), 2007).
The list shows a part of the results, in another mix than the full data. Results filed as inconclusive are left out. Calls of active or inactive are those of the source. The call rests on the fitted dose curve; in most records, active means well fitted cell-killing curve with a large enough effect; inconclusive means small, poorly fitted or top-dose-only effect; inactive means no such curve, though single readings can be large or run the other way.

Test: qHTS Screen for Compounds that Selectively Target Cancer Cells with p53 Mutations: Cytotoxicity of p53 Null Cells at the Permissive Temperature;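 further: 0% = DMSO only and -100% = full killing by 100 µM tamoxifen; nearly all actives have a fitted effect of over 55% in size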
Conditions: H1299-neo p53 null cells, ATP luminescence, 24 h, 32C; at 46.1 µM (top of the series)
Source text: NIH Chemical Genomics Center [NCGC] NIH Molecular Libraries Screening Centers Network [MLSCN] MLSCN Grant: 1 X01 MH079844-01 Assay Submitter (PI): Dr. SUN, YI, University of Michigan NCGC Assay Overview: Synthetic Lethal Screen for Compounds to Kill Cancer Cells with p53 Mutation. Tumor suppressor gene p53 serves as a major cellular barrier against tumorigenesis. […] The goal of this screening is to identify small molecule probes that selectively kill cancer cells with mutations in p53. This screening was carried out using two lines of H1299 lung cancer cells. The H1299-p53 A138V line express a temperature sensitive p53 mutant (p53ts) in which the mutant p53 protein (A138V) is in the mutant confirmation when grown at 39C (the nonpermissive temperature) and in the wild type conformation when grown at 32C (the permissive temperature). A H1299-neo line (p53 null) grown at both 39C and 32C were used as counter-screens to filter out false positive associated with temperature shifting. The small molecular compounds that selectively target mutant p53-containing cancer cells were selected as candidate probes for further study. A cytotoxicity assay based on the measurement of ATP contents in cells was used in this screen. Concentration-responses of all the compounds in the library collection were determined in qHTS using the cell lines and temperature conditions as above.
NCGC Assay Protocol Summary: Both the H1299-p53A138V and H1299-neo cell lines were provided by Dr.Yi Sun, a PI at the University Michigan. The cells were maintained and cultured at 37C. The resuspended frozen cells were used to plate the cells in the 1536-well assay plates at a density of 600 cells per well in 5 ul medium. The assay plates with the cells were incubated at 37C for 16 to 30 hours before the experiments. The library compounds in DMSO solution were added to the cells in assay plates and incubated 24 hours at 39C (for mutant p53 conformation) or 32C (for normal p53 conformation as control). An ATP_lite assay kit (PerkinElmer) was used to determine the cell viability. Tomaxifen (100uM) was used as the positive control for cell killing. Data were normalized to the controls for basal activity (DMSO only) and 100% killing (100uM tamoxifen). AC50 values were determined from concentration-response data modeled with the standard Hill equation. P53 assay protocol: 1. Reagent; 5 uL H1299-p53A138V or H1299-neo cell cells/well 2. Time; overnight; 37C incubation 3. Compounds; 23 nL; 5.9 nM to 46 uM 4. Controls; 23 nL; Tamoxifen 100 uM 5. Time; 24 hr; 32C incubation 6. Reagent; 3 uL; ATP_Lite reagent 7. Time; 20 min; Room Temperature 8. Detection; Luminescence; Viewlux plate reader Keywords: p53, synthetic lethal, cancer, cell viability, cytotoxicity, H1299 cell line, luminescence, MLSMR, MLSCN, NIH Roadmap, qHTS, NCGC

| SMILES | activity change, negative = cytotoxicity |
| --- | --- |
| CCC(C)N(CC(C)C)C(=S)SC(NC(C)=O)C(Cl)(Cl)Cl (configuration not stated) | inactive: 2.18% |
| Cc1cc(SC(NC(=O)c2ccccc2)C(Cl)(Cl)Cl)nc(C(C)C)n1 (configuration not stated) | inactive: -6.64% |
| ClCCSc1nnc(-c2cccnc2)o1 | inactive: -11.2% |
| Cc1c2c(nc3ccccc13)SC(C(Cl)Cl)C2 (configuration not stated) | inactive: -0.308% |
| CC(C)C(=O)NC(Sc1ccccc1)C(Cl)(Cl)Cl (configuration not stated) | inactive: -22.5% |
| CN1CCCC(OC(=O)C(c2ccccc2)c2ccccc2)C1 (configuration not stated) | inactive: -9.91% |
| Cc1cc(SC(NC(=O)c2ccc(F)cc2)C(Cl)(Cl)Cl)ncn1 (configuration not stated) | inactive: 6% |
